Data published in patent US20190275167A1, “GLASS FORMULATIONS AND USES THEREOF” (priority 2018, published 2019).

Assays:
[1] = Drug release from heat-molded pellets/articles in release buffer (PBS, 1% FBS in PBS or 100% FBS) at 37° C., HPLC quantification; type: physicochemical; details: over the course of 12 weeks or more; FIGS. 1E, 12E, 15C, 17D
[2] = physiologically relevant conditions

Dexamethasone-Pentaethylene Glycol-Dexamethasone [Compound 8]
Dexamethasone release profile from articles [1]: generally linear | Physical form (shape) changes of articles [2]: do not
